Measurements published in patent US20260048027A1.

Chains of the proteins cited; added tags and fusions are not shown.
UniProt P31639, whole entry: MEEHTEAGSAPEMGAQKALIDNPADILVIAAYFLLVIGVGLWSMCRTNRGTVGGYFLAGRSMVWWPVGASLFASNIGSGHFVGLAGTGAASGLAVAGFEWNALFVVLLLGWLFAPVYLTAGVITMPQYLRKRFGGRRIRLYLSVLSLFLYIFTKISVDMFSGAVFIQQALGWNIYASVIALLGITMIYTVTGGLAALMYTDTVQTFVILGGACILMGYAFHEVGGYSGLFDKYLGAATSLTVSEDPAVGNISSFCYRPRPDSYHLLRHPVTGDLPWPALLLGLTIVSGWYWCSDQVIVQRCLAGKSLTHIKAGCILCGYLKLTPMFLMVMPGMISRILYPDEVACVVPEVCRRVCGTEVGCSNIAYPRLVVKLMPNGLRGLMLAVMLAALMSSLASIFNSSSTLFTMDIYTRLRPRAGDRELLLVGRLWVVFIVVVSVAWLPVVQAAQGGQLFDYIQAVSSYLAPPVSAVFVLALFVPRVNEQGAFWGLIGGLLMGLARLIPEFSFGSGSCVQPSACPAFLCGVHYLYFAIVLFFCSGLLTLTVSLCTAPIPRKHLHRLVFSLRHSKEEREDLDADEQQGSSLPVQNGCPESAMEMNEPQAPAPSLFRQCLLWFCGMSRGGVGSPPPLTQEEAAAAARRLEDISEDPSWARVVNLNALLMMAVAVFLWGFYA

Biological target: SGLT2 (Homo sapiens, UniProt P31639)
Details: comparison of SGLT2 and SGLT1 transfected CHO-K1 cells

COc1cc(O)c(C(=O)CCc2ccc(O)cc2)c(OC2OC(CO)C(O)C(O)C2O)c1 (stereo not shown)
potency on SGLT2 versus SGLT1: more potent on SGLT2 than on SGLT1
